Reference: US20240376151A1, “STAPLED PEPTIDES AND METHODS THEREOF” (FOG PHARMACEUTICALS, INC., priority 2022, published 2024)

Tests used:
[1] = system: Expi293 cells; experiment: Measurement of the Cell Association of Helicons (mass spectrometry quantification in cells after treatment and wash); format: cell-based; conditions: percentage of Helicons in cells after treatment and wash, 22 hours, n = 2, mean ± SD
Description: All samples were analyzed using mass spectrometry.

[2] = system: Expi293 cells; experiment: CellTiter-Glo cell health (ATP levels) during cell association assay; format: cell-based; conditions: reflective of cell health, luminescence Tfinal (22 hours) / Tinitial

Structure (SMILES) | Helicon in cells ± SD (%) [1] [%] | CellTiter-Glo fold change ± SD [2]
CC[C@H](C)[C@H](NC(C)=O)C(=O)N[C@@H](CC(C)C)C(=O)N[C@H](C(=O)N[C@]1(C)CCCCCCC=CCCC[C@@](C)(C(=O)N[C@@H](CCC(N)=O)C(=O)N[C@@H](Cc2ccc(O)cc2)C(=O)N[C@@H](CCC(N)=O)C(N)=O)NC(=O)[C@H]([C@@H](C)O)NC(=O)[C@H](Cc2ccccc2)NC(=O)[C@H](C)NC(=O)[C@H](C)NC(=O)[C@H](CCC(=O)O)NC(=O)[C@H](Cc2ccc(O)cc2)NC1=O)[C@@H](C)O (single isomer, unassigned) [FP08029, Ac-Ile-Leu-Thr-R8-Tyr-Glu-Ala-Ala-Phe-Thr-S5-Gln-Tyr-Gln-NH2] | 0.2 ± 0.0 | 1.1 ± 0.03
CC[C@H](C)[C@H](NC(C)=O)C(=O)N[C@@H](CC(C)C)C(=O)N[C@H](C(=O)N[C@]1(C)CCCCCCC=CCCC[C@@](C)(C(=O)N[C@@H](CCC(N)=O)C(=O)N[C@@H](Cc2ccc(O)cc2)C(=O)N[C@@H](CCC(N)=O)C(N)=O)NC(=O)[C@H]([C@@H](C)O)NC(=O)[C@H](Cc2ccccc2)NC(=O)[C@H](C)NC(=O)[C@H](C)NC(=O)[C@H](CCC(=O)O)NC(=O)[C@H](Cc2ccc(O)cc2)NC1=O)[C@@H](C)O (single isomer, unassigned) [FP08030, Ac-Ile-Leu-Thr-R8-Tyr-Glu-Ala-Ala-Phe-Thr-S5-Gln-Tyr-Gln-NH2] | 0.3 ± 0.0 | 1.2 ± .02
